# Results: PMC11965403, “TRIM21-mediated METTL3 degradation promotes PDAC ferroptosis and enhances the efficacy of Anti-PD-1 immunotherapy” (Cell Death & Disease, 2025)
# B1: purified His-TRIM21 (enzyme, human, UniProt P19474 1-475, looked up)
# chain: MASAARLTMMWEEVTCPICLDPFVEPVSIECGHSFCQECISQVGKGGGSVCPVCRQRFLLKNLRPNRQLANMVNNLKEISQEAREGTQGERCAVHGERLHLFCEKDGKALCWVCAQSRKHRDHAMVPLEEAAQEYQEKLQVALGELRRKQELAEKLEVEIAIKRADWKKTVETQKSRIHAEFVQQKNFLVEEEQRQLQELEKDEREQLRILGEKEAKLAQQSQALQELISELDRRCHSSALELLQEVIIVLERSESWNLKDLDITSPELRSVCHVPGLKKMLRTCAVHITLDPDTANPWLILSEDRRQVRLGDTQQSIPGNEERFDSYPMVLGAQHFHSGKHYWEVDVTGKEAWDLGVCRDSVRRKGHFLLSSKSGFWTIWLWNKQKYEAGTYPQTPLHLQVPPCQVGIFLDYEAGMVSFYNITDHGSLIYSFSECAFTGPLRPFFSPGFNDGGKNTAPLTLCPLNIGSQGSTDY
# notes: TRIM21, human; 'coding regions of human genes METTL3 and TRIM21' inserted into pET-28a; Vector pET-28a; source: E. coli BL21, purified
# Biological target: T1, GST-METTL3 fusion protein (human)
# T1 construct: METTL3, human; 'coding regions of human genes METTL3 and TRIM21' inserted into pGEX-4T-1; Vector pGEX-4T-1; source: E. coli BL21, purified
# Test: pull-down; purified His-TRIM21 incubated with purified GST or GST-METTL3 overnight at 4 °C, captured on glutathione-sepharose beads, immunoblot
# Details: both partners purified
binder,measurement,value
B1,binding result,binds
